molecular target: renin (Homo sapiens, UniProt P00797); experiment: in vitro renin inhibitory activity, radioimmunoassay for angiotensin I; details: renin incubated two hours at 37° with angiotensinogen; concentration causing 50% inhibition of renin activity

Protein sequences, listed by entry. Tags and fused reporters are not part of them. Residues count along the entry.
UniProt P00797, 67-406 limits assumed: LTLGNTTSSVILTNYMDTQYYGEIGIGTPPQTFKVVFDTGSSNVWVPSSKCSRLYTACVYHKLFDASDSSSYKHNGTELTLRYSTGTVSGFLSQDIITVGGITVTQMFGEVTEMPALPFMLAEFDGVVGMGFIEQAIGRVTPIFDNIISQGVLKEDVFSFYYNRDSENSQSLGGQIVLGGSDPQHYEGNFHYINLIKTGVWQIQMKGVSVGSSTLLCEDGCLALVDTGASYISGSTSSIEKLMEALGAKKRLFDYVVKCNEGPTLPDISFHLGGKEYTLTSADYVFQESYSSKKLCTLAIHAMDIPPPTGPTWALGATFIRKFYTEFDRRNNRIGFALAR

**Q.** Which IC50 does the source give for `COC(=O)C(NC(=O)[C@H](Cc1ccc(OC)cc1)NS(=O)(=O)N(C)C)C(=O)NC(CC1CCCCC1)C(O)C(O)CC(C)C` (stereo partly shown) here?
**A.** 0.68 nM

**Q.** `COC(=O)C(NC(=O)[C@H](Cc1ccc(OC)cc1)NS(=O)(=O)N1CCOCC1)C(=O)NC(CC1CCCCC1)C(O)C(O)CC(C)C` (stereo partly shown) was tested. Which IC50 did it give?
**A.** 0.45 nM

**Q.** `CC(C)CC(O)C(O)C(CC1CCCCC1)NC(=O)C(CC#N)NC(=O)[C@H](Cc1ccccc1)NS(=O)(=O)N1CCOCC1` (stereo partly shown) was tested. Which IC50 did it give?
**A.** 0.4 nM

**Q.** How did the IC50 turn out when `CCOC(NC(=O)[C@H](Cc1ccccc1)NC(=O)CC(C)(C)N)C(=O)NC(CC1CCCCC1)C(O)C(O)CC(C)C` (stereo partly shown) was run?
**A.** 1.4 nM

**Q.** With `COC(=O)C(NC(=O)[C@H](Cc1ccccc1)NC(=O)CC(C)C)C(=O)NC(CC1CCCCC1)C(O)C(O)CC(C)C` (stereo partly shown) as the compound, how does the IC50 read?
**A.** 1.4 nM

**Q.** For `CC(C)CC(O)C(O)C(CC1CCCCC1)NC(=O)C(NC(=O)[C@H](Cc1ccccc1)NS(=O)(=O)N1CCOCC1)C(=O)O` (stereo partly shown), which IC50 is on record?
**A.** 12 nM

**Q.** Which IC50 does the source give for `CC(C)CC(O)C(O)C(CC1CCCCC1)NC(=O)C(CC#CCNC=O)NC(=O)[C@H](Cc1ccccc1)NS(=O)(=O)N1CCOCC1` (stereo partly shown) here?
**A.** 6 nM

**Q.** For `CCOC(NC(=O)[C@H](Cc1ccccc1)NS(=O)(=O)N1CCOCC1)C(=O)NC(C1CCCCC1)C(O)C(O)CC(C)C` (single isomer, unassigned), which IC50 is on record?
**A.** 25 nM

**Q.** Which IC50 does the source give for `COC(=O)C(NC(=O)[C@H](Cc1ccccc1)NS(=O)(=O)N(C)C)C(=O)NC(CC1CCCCC1)C(O)C(O)CC(C)C` (stereo partly shown) here?
**A.** 0.66 nM

**Q.** `C=CCSC(NC(=O)[C@H](Cc1ccccc1)NS(=O)(=O)N1CCOCC1)C(=O)NC(CC1CCCCC1)C(O)C(O)CC(C)C` (single isomer, unassigned) [drawing 105] was tested. Which IC50 did it give?
**A.** 38 nM

**Q.** For `CCSC(NC(=O)[C@H](Cc1ccccc1)NC(=O)OC(C)(C)C)C(=O)NC(CC1CCCCC1)C(O)C(O)CC(C)C` (single isomer, unassigned) [BOCPHENHCH(SEt)COCAD (slow isomer)], which IC50 is on record?
**A.** > 10 nM

**Q.** For `CC(=O)NCC#CCC(NC(=O)[C@H](Cc1ccccc1)NS(=O)(=O)N1CCOCC1)C(=O)NC(CC1CCCCC1)C(O)C(O)CC(C)C` (stereo partly shown), which IC50 is on record?
**A.** 7.6 nM

**Q.** Which IC50 does the source give for `CNC(=S)NCCCC[C@H](NC(=O)[C@H](Cc1ccccc1)NS(=O)(=O)N1CCOCC1)C(=O)NC(CC1CCCCC1)C(O)C(O)CC(C)C` (stereo partly shown) here?
**A.** 0.19 nM

**Q.** For `CC(C)CC(O)C(O)C(CC1CCCCC1)NC(=O)CNC(=O)[C@H](Cc1ccccc1)NS(=O)(=O)N1CCOCC1` (stereo partly shown), which IC50 is on record?
**A.** 5 nM

**Q.** Which IC50 does the source give for `CNC(=S)NCC#CCC(NC(=O)[C@H](Cc1ccccc1)NS(=O)(=O)N1CCOCC1)C(=O)NC(CC1CCCCC1)C(O)C(O)CC(C)C` (stereo partly shown) here?
**A.** 24 nM

same assay, conditions: renin incubated two hours at 37° with angiotensinogen; concentration causing 50% inhibition of renin activity; tested form: acetate

**Q.** With `COC(=O)C(NC(=O)[C@H](Cc1ccccc1)NS(=O)(=O)N1CCN(C)CC1)C(=O)NC(CC1CCCCC1)C(O)C(O)CC(C)C` (stereo partly shown) as the compound, how does the IC50 read?
**A.** 0.3 nM

**Q.** `COC(=O)C(NC(=O)[C@H](Cc1ccccc1)NS(=O)(=O)N1CCNCC1)C(=O)NC(CC1CCCCC1)C(O)C(O)CC(C)C` (stereo partly shown) was tested. Which IC50 did it give?
**A.** 0.6 nM

same assay, conditions: renin incubated two hours at 37° with angiotensinogen; concentration causing 50% inhibition of renin activity; tested form: methanesulfonate

**Q.** For `CC(C)CC(O)C(O)C(CC1CCCCC1)NC(=O)[C@H](Cc1c[nH]cn1)NC(=O)C(Cc1ccccc1)CS(=O)(=O)C(C)(C)C` (single isomer, unassigned) [BBSPHISCAD (slow isomer)], which IC50 is on record?
**A.** 0.8 nM

**Q.** `CC(C)CC(O)C(O)C(CC1CCCCC1)NC(=O)[C@H](Cc1c[nH]cn1)NC(=O)C(Cc1ccccc1)CS(=O)(=O)C(C)(C)C` (single isomer, unassigned) [BBSPHISCAD (fast isomer)] was tested. Which IC50 did it give?
**A.** 160 nM

From patent US5036053A
